According to ChEMBL document CHEMBL5634157, “Design and synthesis of certain 7-Aryl-2-Methyl-3-Substituted Pyrazolo{1,5-a}Pyrimidines as multikinase inhibitors” (Eur J Med Chem, 2023):

Molecular target: T1, Activin receptor type-1 (Homo sapiens) (UniProt Q04771)
T1 sequence (whole entry): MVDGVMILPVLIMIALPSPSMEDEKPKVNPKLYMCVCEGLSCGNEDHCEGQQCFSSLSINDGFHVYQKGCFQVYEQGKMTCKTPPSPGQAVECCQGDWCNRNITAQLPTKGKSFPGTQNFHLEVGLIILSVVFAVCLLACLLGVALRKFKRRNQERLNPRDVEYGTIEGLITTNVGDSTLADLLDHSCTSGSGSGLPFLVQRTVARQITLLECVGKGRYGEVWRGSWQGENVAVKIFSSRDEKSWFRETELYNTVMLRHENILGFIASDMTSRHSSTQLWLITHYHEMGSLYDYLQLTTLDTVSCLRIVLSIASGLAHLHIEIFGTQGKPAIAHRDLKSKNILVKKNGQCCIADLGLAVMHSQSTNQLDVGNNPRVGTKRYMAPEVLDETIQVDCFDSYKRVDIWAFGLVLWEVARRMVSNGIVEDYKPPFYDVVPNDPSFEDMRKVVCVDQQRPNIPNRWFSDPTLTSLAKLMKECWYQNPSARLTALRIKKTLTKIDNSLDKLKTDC
Assay: Inhibition of ALK2 in human EKVX cells by Western blotting analysis
Format: cell-based

- inhibition: Active
SMILES: COc1ccc(-c2ccnc3c(-c4noc(C)n4)c(C)nn23)cc1

The source made the active and inactive calls. No cut-off for these calls is given here.
